These compounds were tested against human ENT1 transporter (Homo sapiens, UniProt Q99808) (assay: hENT1-NBMPR-ERYTH binding assay ([3H]NBMPR, human erythrocytes)). Details: [3H]NBMPR 1 nM, washed human red blood cells 1:200, 30 minutes at room temperature; pIC50=-log(IC50).

The chains behind the UniProt entries cited, without tags or fusion partners.
UniProt Q99808, whole entry: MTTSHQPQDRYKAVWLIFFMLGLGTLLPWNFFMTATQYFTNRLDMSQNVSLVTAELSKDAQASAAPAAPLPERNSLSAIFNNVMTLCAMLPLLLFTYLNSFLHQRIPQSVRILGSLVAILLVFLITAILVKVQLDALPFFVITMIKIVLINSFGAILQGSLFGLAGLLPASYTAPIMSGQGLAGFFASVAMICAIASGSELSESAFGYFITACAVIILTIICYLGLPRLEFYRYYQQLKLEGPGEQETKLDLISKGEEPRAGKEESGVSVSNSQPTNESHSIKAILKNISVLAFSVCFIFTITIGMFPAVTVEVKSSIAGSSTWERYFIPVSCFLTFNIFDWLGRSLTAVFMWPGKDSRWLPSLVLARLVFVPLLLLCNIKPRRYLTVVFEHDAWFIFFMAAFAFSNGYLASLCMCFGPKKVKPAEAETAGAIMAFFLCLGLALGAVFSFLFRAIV

SMILES | pIC50 values for ENT1 transporter inhibition
CC(=O)N1CCC(Oc2cc3c(cc2Cl)C(=O)CC2(CCN(CCNC(=O)c4c(C)cccc4C)CC2)O3)CC1 | 8.35
CC(=O)N1CCC(Nc2cc(C)cc3c2OC2(CCN(CCNC(=O)c4c(Cl)cccc4Cl)CC2)CC3=O)CC1 | 8.535
CC(=O)Nc1ccc2c(c1)OC1(CCN(CCNC(=O)c3c(Cl)cccc3Cl)CC1)CC2=O | 7.38
O=C1CC2(CCN(CCNC(=O)c3c(Cl)cccc3Cl)CC2)Oc2c(OC3CCCC3)cc(Cl)cc21 | 8.16
COc1ccc2c(c1)C(=O)CC1(CCN(CCNC(=O)c3c(Cl)cccc3Cl)CC1)O2 | 6.60
Cc1cccc(C)c1C(=O)NCCN1CCC2(CC1)NC(=O)c1cc(Cl)c(NCCCO)cc1O2 | 7.38
CC(=O)N1CCC(Oc2cc(Cl)cc3c2OC2(CCN(CCNC(=O)c4c(C)cccc4C)CC2)NC3=O)CC1 | 6.22
CC(C)Oc1cc2c(cc1Cl)C=CC1(CCN(CCNC(=O)c3c(Cl)cccc3Cl)CC1)O2 | 9.73
CC(=O)Nc1ccc2c(c1)C(=O)CC1(CCN(CCNC(=O)c3c(Cl)cccc3Cl)CC1)O2 | 6.83
O=C1CC2(CCN(CCNC(=O)c3c(Cl)cccc3Cl)CC2)Oc2cc(NCCCO)c(Cl)cc21 | 9.17
Cc1cc2c(c(N3CCOCC3)c1)OC1(CCN(CCNC(=O)c3c(Cl)cccc3Cl)CC1)NC2=O | 7.29
CN(CCCNc1cc2c(cc1Cl)C(=O)NC1(CCN(CCNC(=O)c3c(Cl)cccc3Cl)CC1)O2)C(=O)OC(C)(C)C | 9.30
CC(=O)N1CCC(Nc2ccc3c(c2Cl)OC2(CCN(CCNC(=O)c4c(Cl)cccc4Cl)CC2)CC3=O)CC1 | 7.345
COCCCNc1cc(C)cc2c1OC1(CCN(CCNC(=O)c3c(Cl)cccc3Cl)CC1)NC2=O | 7.675
Cc1cccc(C)c1C(=O)NCCN1CCC2(CC1)NC(=O)c1cc(Cl)c(NCC3CCCC3)cc1O2 | 8.01
CNc1cc(Cl)cc2c1OC1(CCN(CCNC(=O)c3c(Cl)cccc3Cl)CC1)NC2=O | 7.39
CNc1cc(C)cc2c1OC1(CCN(CCNC(=O)c3c(Cl)cccc3Cl)CC1)CC2=O | 7.91
CC(=O)N1CCC(Nc2cc3c(cc2Cl)C(=O)NC2(CCN(CCNC(=O)c4c(C)cccc4C)CC2)O3)CC1 | 7.71
O=C1CC2(CCN(CCNC(=O)c3c(Cl)cccc3Cl)CC2)Oc2c(Cl)cccc21 | 8.34
O=C1CC2(CCN(CCNC(=O)c3c(Cl)cccc3Cl)CC2)Oc2c(O)cc(Cl)cc21 | 7.115
O=C1CC2(CCN(CCNC(=O)c3c(Cl)cccc3Cl)CC2)Oc2ccc([N+](=O)[O-])cc21 | 6.36
Cc1cccc(C)c1C(=O)NCCN1CCC2(CC1)CC(=O)c1cc(Cl)c(N3CCOCC3)cc1O2 | 7.91
COc1cc(C)cc2c1OC1(CCN(CCNC(=O)c3c(Cl)cccc3Cl)CC1)CC2=O | 7.735
Cc1cccc(C)c1C(=O)NCCN1CCC2(CC1)CC(=O)c1cc(Cl)c(NCC3CCCC3)cc1O2 | 8.42
Cc1c(OCc2ccccc2)ccc2c1OC1(CCN(CCNC(=O)c3c(Cl)cccc3Cl)CC1)CC2=O | 8.94
COCCCN(C(C)=O)c1cc2c(cc1C)C(=O)CC1(CCN(CCNC(=O)c3c(Cl)cccc3Cl)CC1)O2 | 8.74
Cc1cc2c(cc1OC1CCCC1)OC1(C=C2)CCN(CCNC(=O)c2c(Cl)cccc2Cl)CC1 | 9.335

From patent US8263592B2, “Equilibrative nucleoside transporter ENT1 inhibitors” (Janssen Pharmaceutica NV, priority 2007, dated 2012)
